What is called inhibition is the change of the read-out against control, counted positive when it falls.

Chains of the proteins cited; added tags and fusions are not shown.
UniProt P08659, whole entry, looked up: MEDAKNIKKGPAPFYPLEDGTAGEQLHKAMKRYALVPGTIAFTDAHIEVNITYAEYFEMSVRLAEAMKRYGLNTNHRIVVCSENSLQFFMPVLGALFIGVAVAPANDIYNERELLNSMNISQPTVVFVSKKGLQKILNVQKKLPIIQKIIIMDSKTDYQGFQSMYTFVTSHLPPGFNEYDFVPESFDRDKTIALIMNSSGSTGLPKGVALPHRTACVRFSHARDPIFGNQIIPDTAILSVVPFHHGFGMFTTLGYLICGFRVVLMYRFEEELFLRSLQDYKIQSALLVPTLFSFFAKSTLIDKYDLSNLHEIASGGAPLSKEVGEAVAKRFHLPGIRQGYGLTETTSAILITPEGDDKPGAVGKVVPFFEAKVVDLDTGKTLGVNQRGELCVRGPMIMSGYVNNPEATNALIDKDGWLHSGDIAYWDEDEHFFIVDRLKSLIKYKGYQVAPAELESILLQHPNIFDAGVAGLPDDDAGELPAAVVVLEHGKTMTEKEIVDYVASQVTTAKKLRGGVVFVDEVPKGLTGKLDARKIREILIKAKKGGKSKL

This is a selection; strong and weak results do not stand in their true shares. Active and inactive are the calls of the source.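 How the source made its calls: active means inhibition above about 50% when tested at 10 µM (limit read from the data); inactive means the rest.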

The assay concerns the target Luciferin 4-monooxygenase (Photinus pyralis) (UniProt P08659). Description: firefly luciferase enzyme inhibitors, primary screen, artefact control for luciferase-based inhibitor screens, biochemical, luminescence, ATPLite (AID 1006). Conditions: 10 min, at 10 µM, stronger effect = higher value. Background: Cellular ATP, detected with luciferase, serves as a proxy for viable cell number.
Turning to `CN1CCCCC1COC(=O)C1(O)c2ccccc2CCc2ccccc21` (stereo not given), the inhibition was inactive: -0.7%.
Turning to `COc1ccccc1OP(C)(=O)Nc1c(C)cccc1C` (stereo not given), the inhibition is inactive: -6.5%.
Regarding `CCCOc1ccc(NP(C)(=O)Oc2ccc(Cl)cc2)cc1` (stereo not given), the inhibition was inactive: -4.9%.
For `CP(=O)(Nc1ccc(SC(F)(F)F)cc1)Oc1ccccc1` (stereo not given), the inhibition is inactive: -0.6%.
Consider `O=[N+]([O-])c1cc([N+](=O)[O-])c(-n2nnc3ccccc32)c([N+](=O)[O-])c1`, for which the inhibition is inactive: -4.7%.
As for `Cc1nc2ccc3ccccc3c2s1.O=[N+]([O-])c1cc([N+](=O)[O-])c(O)c([N+](=O)[O-])c1`, the figure is inactive: 0.7%; as for `CCOC(=O)c1ccc(NP(C)(=O)Oc2cc(C)cc(C)c2)cc1` (stereo not given), inactive: -5.4%.
`Cc1cc(C)cc(OP(C)(=O)Nc2ccc(C)cc2C)c1` (stereo not given): the inhibition is inactive: -4.6%.
Under `Cc1ccc(C)c(NP(C)(=O)Oc2ccccc2)c1` (stereo not given) stands inactive: -4.4%; under `Cc1cc(C)cc(OP(C)(=O)Nc2ccccn2)c1` (stereo not given), inactive: -4.3%; under `CP(=O)(Nc1cccc(Br)c1)Oc1ccccc1` (stereo not given), inactive: -0.9%.
As for `CC1=NCCc2c1[nH]c1ccccc21.O=[N+]([O-])c1cc([N+](=O)[O-])c(O)c([N+](=O)[O-])c1`, the figure is inactive: -4.3%.
On to `O=[N+]([O-])c1ccc2c(c1)C=Nc1ccccc1O2`, for which the inhibition was inactive: -8.2%.
Regarding `Cc1cccc(C)c1OP(C)(N)=O` (stereo not given), the inhibition was inactive: -2.2%.
Take `CC(C)(C)c1ccc(OP(C)(=O)Nc2ccc(SC(F)(F)F)cc2)cc1` (stereo not given): the inhibition is inactive: -6.6%.
Turning to `Cc1ccc(NP(C)(=O)Oc2ccccc2)c(C)c1` (stereo not given), the inhibition is inactive: 1.9%.
Turning to `COc1ccccc1OP(C)(=O)Nc1ccc(C)cc1` (stereo not given), the inhibition was inactive: -5.3%.
For the compound `CCOC(=O)c1ccc(NP(C)(=O)Oc2ccccc2)cc1` (stereo not given), the inhibition is inactive: -1.5%.
For the compound `Cc1cc(C)cc(OP(C)(N)=O)c1` (stereo not given), the inhibition is inactive: 2.6%.
Under `COc1ccc(OP(C)(=O)Nc2cccc(F)c2)cc1` (stereo not given) stands inactive: -2.3%.
For `COc1ccccc1OP(C)(=O)Nc1cc(Cl)ccc1C` (stereo not given), the inhibition is inactive: -2%.
Take `CCN(CC)CCCOC(=O)C(O)(c1ccccc1)c1ccccc1`: the inhibition is inactive: -2.8%.
As for `CP(=O)(Oc1ccccc1)OC(c1ccccc1)C(F)(F)F` (stereo not given), the figure is inactive: -5.1%.
Under `Cc1cccc(C)c1OP(C)(=O)Nc1ccc(SC(F)(F)F)cc1` (stereo not given) stands inactive: -6.2%.
On to `Cc1cc(C)cc(OP(C)(=O)Nc2ccc(SC(F)(F)F)cc2)c1` (stereo not given), for which the inhibition was inactive: -5.9%.
As for `CP(=O)(NC(=O)Nc1ccccc1)Oc1ccccc1` (stereo not given), the figure is inactive: -6.5%; as for `CCOC(=O)c1ccc(NP(C)(=O)Oc2ccc(OC)cc2)cc1` (stereo not given), inactive: -8%.
For the compound `CCOP(C)(=S)SCC(=O)NC(C)C(=O)O` (stereo not given), the inhibition is inactive: -1.7%.
Take `CP(=O)(Nc1ccccn1)Oc1ccc(Cl)cc1` (stereo not given): the inhibition is inactive: -2.9%.
In the case of `CP(=S)(Nn1cnnc1)Oc1ccccc1` (stereo not given), the inhibition is inactive: -6.1%.
With `CP(=O)(Nc1ccccc1Br)Oc1ccccc1` (stereo not given), the inhibition was inactive: -3.4%.
`COc1ccccc1OP(C)(=O)Nc1ccccc1` (stereo not given): the inhibition is inactive: -3.8%.
As for `CCOC(=O)c1ccc(NP(C)(=O)Oc2ccc(Cl)cc2)cc1` (stereo not given), the figure is inactive: -2.6%; as for `CP(=O)(OC12CC3CC(CC(C3)C1)C2)OC12CC3CC(CC(C3)C1)C2`, inactive: -3.1%.
Take `COc1ccc(OP(C)(=O)Nc2ccc(Br)cc2)cc1` (stereo not given): the inhibition was inactive: -3.1%.
With `CCN(CC)CC(O)COC(=O)C(O)(c1ccccc1)C1CCCCC1` (stereo not given), the inhibition is inactive: -8.5%.
Take `COc1ccccc1OP(C)(=O)Nc1c(C)n(C)n(-c2ccccc2)c1=O` (stereo not given): the inhibition is inactive: -2.1%.
For the compound `CCc1ccc(OP(C)(=O)Nc2cccnc2)cc1` (stereo not given), the inhibition was inactive: -8.4%.
With `CP(=O)(Oc1ccccc1)N1CCOC1=O` (stereo not given), the inhibition is inactive: -6%.
As to `COc1ccccc1OP(C)(=O)Nc1ccccc1Br` (stereo not given), the inhibition is inactive: -4.6%.
Regarding `CC(C)(C)c1ccc(OP(C)(=O)O)cc1`, the inhibition is inactive: 0%.
Turning to `CP(=O)(Nc1ccc(Cl)cc1)Oc1ccc(F)cc1` (stereo not given), the inhibition is inactive: -7.8%.
Under `CN(C)C(=O)c1c([N+](=O)[O-])cc([N+](=O)[O-])cc1[N+](=O)[O-]` stands inactive: -1.6%.
As for `COc1ccc(OP(C)(=O)Nc2ccccn2)cc1` (stereo not given), the inhibition is inactive: -4.8%.
Regarding `CN(C)CCOC(=O)C(O)(c1ccccc1)C1CCCC1` (stereo not given), the inhibition is inactive: -6.8%.
For `Cc1c(NP(C)(=O)Oc2ccc(C(C)C)cc2)c(=O)n(-c2ccccc2)n1C` (stereo not given), the inhibition is inactive: -2.8%.
`O=[N+]([O-])c1cc([N+](=O)[O-])c(Nc2ccccn2)c([N+](=O)[O-])c1`: the inhibition is inactive: -2%.
As to `COc1ccccc1OP(C)(=O)Nc1ccc(C)cc1C` (stereo not given), the inhibition was inactive: -5.2%.
In the case of `CP(=O)(Nc1ccccn1)Oc1ccccc1` (stereo not given), the inhibition was inactive: -3%.
Turning to `CCc1ccc(OP(C)(=O)O)cc1`, the inhibition is inactive: -6.6%.
Under `Cc1cc(C)cc(OP(C)(=O)Nc2cccc(C(F)(F)F)c2)c1` (stereo not given) stands inactive: -4.3%.
Regarding `COc1ccccc1OP(C)(=O)Nc1ccc(C)c(C)c1` (stereo not given), the inhibition is inactive: -2.9%.
For `COc1ccc(OP(C)(=O)Nc2ccccc2Br)cc1` (stereo not given), the inhibition was inactive: -6.1%.
In the case of `Cc1nc2ccc3ccccc3c2o1.O=[N+]([O-])c1cc([N+](=O)[O-])c(O)c([N+](=O)[O-])c1`, the inhibition is inactive: 3.9%.
On to `CP(=O)(Nc1ccc(Cl)cc1Cl)Oc1ccccc1` (stereo not given), for which the inhibition is inactive: -3.7%.
Regarding `CP(=O)(OCCOc1ccccc1)OCCOc1ccccc1`, the inhibition was inactive: -4.7%.
As for `CCOC(=O)c1ccc(NP(C)(=O)Oc2ccc(F)cc2)cc1` (stereo not given), the figure is inactive: 3%; as for `COc1ccc(OP(C)(=O)Nc2ccc(SC(F)(F)F)cc2)cc1` (stereo not given), inactive: -7.4%.
Take `CCN(CC)CCCOC(=O)C(O)(c1ccccc1)C1CCCCC1` (stereo not given): the inhibition was inactive: -7.6%.
On to `CP(=O)(Nc1ccccc1)Oc1ccc(F)cc1` (stereo not given), for which the inhibition is inactive: -2.6%.
As for `CP(=O)(Nc1ccccc1F)Oc1ccccc1` (stereo not given), the inhibition is inactive: -11.6%.
Under `CC(C)c1ccc(OP(C)(=O)Nc2ccc(SC(F)(F)F)cc2)cc1` (stereo not given) stands inactive: -4.8%; under `O=C(OCCN1CCN(CCOCc2ccccc2)CC1)C(O)(c1ccccc1)c1ccccc1`, inactive: -0.9%.
Regarding `CCOP(C)(=S)SCC(=O)NC(C)(CC)C(=O)O` (stereo not given), the inhibition is inactive: -2.5%.
In the case of `CP(=O)(Nc1ccc2c(c1)OCCO2)Oc1ccccc1` (stereo not given), the inhibition is inactive: 0.2%.
With `Cc1ccccc1NP(C)(=O)Nc1ccccc1C`, the inhibition is inactive: -9.7%.
Regarding `COc1ccc(OP(C)(=O)Nc2cccc(Br)c2)cc1` (stereo not given), the inhibition was inactive: -7.4%.
As for `CN(C)CCOC(=O)C(O)(c1ccccc1)C1CCCCC1` (stereo not given), the figure is inactive: -1.6%; as for `COc1ccc(NP(C)(=O)Oc2ccccc2OC)cc1` (stereo not given), inactive: -2.2%.
As for `O=[N+]([O-])c1cc([N+](=O)[O-])c(NCC2CCS(=O)(=O)C2)c([N+](=O)[O-])c1` (stereo not given), the inhibition is inactive: 3.8%.
